# Results as given in patent publication US7605227B2, “Melanoma antigen peptide analogues” (MannKind Corporation, priority 2005, dated 2009).
# Columns and labels:
# HLA-A*0201 = HLA-A*0201 (Homo sapiens, UniProt P04439, D140Y/D185E/D98H/E176V/E277Q/G131W/G231S/I119V/I121R/I166T/I218V/L300P/L318F/N151K/N90K/P208A/P217A/Q86G/Q94H/R138H/R169H/T345S); test: Peptide binding using T2 cells (SSX-2 41-49 analogs); details: half maximal binding of wild-type peptide relative to analog; native = 1.0
# [1] = test system: T cell lines against a natural (non-mutated) epitope (SSX-241-49); test: Cross-reactivity and functional avidity: IFN-gamma from T cell lines against natural SSX-2 41-49 epitope; assay type: cell-based, HHD transgenic mice; details: IFN-gamma from T cell line raised against native SSX-2 41-49; native = 1, lower = more active;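 also: peptide analogs tested ex vivo with competent APCs, IFN-gamma in supernatant measured by ELISA, readouts include minimal triggering concentration, peak effect and concentration at peak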
smiles,measurement,setting,value
"CC[C@H](C)[C@H](NC(=O)[C@H](CCCCN)NC(=O)[C@H](CCC(=O)O)NC(=O)[C@H](CO)NC(=O)[C@@H](NC(=O)[C@@H](N)Cc1ccccc1)C(C)C)C(=O)N[C@@H](Cc1ccccc1)C(=O)N[C@@H](Cc1ccc(F)cc1)C(=O)N[C@H](C(=O)O)C(C)C [SSX2 41-49 (K41F, A42V, Y48(Phe-4F)), FVSEKIF(Phe-4F)V]",Relative affinity (1/RA),HLA-A*0201,1.4
same,Cross-reactivity and fct avidity (native to analogs)*,[1],10
